Reference: BindingDB's records for 28626522

Chains of the proteins cited; added tags and fusions are not shown. Residues count along the entry.
UniProt O42275, 24-633 limits assumed: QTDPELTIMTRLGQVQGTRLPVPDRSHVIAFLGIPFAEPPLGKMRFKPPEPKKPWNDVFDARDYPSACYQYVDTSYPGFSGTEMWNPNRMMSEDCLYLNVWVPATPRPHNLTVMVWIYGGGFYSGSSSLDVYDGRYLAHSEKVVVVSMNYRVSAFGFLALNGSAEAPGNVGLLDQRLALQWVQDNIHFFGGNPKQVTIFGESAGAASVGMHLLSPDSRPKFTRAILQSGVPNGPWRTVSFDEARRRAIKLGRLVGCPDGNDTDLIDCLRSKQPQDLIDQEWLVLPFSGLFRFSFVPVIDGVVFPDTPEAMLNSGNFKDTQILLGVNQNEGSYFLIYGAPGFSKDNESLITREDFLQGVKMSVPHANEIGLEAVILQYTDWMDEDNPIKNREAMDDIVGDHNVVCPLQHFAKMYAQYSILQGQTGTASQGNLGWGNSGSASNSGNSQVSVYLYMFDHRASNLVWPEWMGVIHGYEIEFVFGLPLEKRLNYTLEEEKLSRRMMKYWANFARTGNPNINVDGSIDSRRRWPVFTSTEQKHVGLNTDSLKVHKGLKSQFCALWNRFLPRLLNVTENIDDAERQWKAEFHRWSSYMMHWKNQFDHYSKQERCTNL

How the values were obtained:
Acetylcholinesterase [1] = biological target: T1, Acetylcholinesterase (Electrophorus electricus, UniProt O42275); assay: Mixed type inhibition of Electric eel AChE assessed as inhibition constant using acetylthiocholine as substrate after 7 min by Ellman's method
Acetylcholinesterase [2] = biological target: T1, Acetylcholinesterase; assay: ChEBML_1686258
Description: (§1) Inhibition of Electric eel AChE using acetylthiocholine as substrate after 7 min by Ellman's method

Acetylcholinesterase [3] = biological target: T1, Acetylcholinesterase; assay: as §1

SMILES	Ki (Acetylcholinesterase [1])	IC50 (Acetylcholinesterase [2])	IC50 (Acetylcholinesterase [3])
COc1cc(CN2CCOCC2)ccc1O	1570 µM	1830 µM	
COc1cc(CN2CCCCC2)ccc1O	106 µM	227 µM	
COc1cc(CN(C)C)ccc1O		919 µM	
COc1cc(CN2CCCC2)ccc1O			403 µM
